In the experiment the target is Cholinesterase (Homo sapiens, UniProt P06276). In words: Inhibition of human serum butyrylcholinesterase using BTCI as substrate pre-incubated for 10 mins followed by substrate addition and measured for 6 mins by Ellman's method. In general terms: Ellman's reagent forms a yellow product with free thiols.

The chains behind the UniProt entries cited, without tags or fusion partners.
UniProt P06276, whole entry: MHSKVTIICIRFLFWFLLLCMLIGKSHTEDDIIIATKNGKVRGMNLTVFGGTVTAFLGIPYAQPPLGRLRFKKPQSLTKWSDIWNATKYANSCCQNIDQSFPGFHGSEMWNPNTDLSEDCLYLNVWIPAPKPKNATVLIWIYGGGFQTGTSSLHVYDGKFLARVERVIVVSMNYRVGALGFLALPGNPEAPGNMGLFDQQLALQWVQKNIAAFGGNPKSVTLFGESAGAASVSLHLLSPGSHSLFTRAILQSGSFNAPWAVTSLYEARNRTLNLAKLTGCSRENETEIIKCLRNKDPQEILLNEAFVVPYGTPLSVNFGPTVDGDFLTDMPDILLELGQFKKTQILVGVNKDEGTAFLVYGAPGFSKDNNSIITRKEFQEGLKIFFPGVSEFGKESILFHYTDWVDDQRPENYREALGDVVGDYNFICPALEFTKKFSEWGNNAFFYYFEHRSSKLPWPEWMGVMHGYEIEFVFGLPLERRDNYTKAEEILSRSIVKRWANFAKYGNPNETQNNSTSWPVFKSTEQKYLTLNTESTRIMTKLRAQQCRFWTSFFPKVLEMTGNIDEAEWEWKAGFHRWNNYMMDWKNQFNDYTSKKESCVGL

Structures are written as SMILES.

This is an account of results in ChEMBL document CHEMBL4433202, “Design and development of multitarget-directed N-Benzylpiperidine analogs as potential candidates for the treatment of Alzheimer's disease” (Eur J Med Chem, 2019).

Consider `CCN(C)C(=O)Oc1cccc([C@H](C)N(C)C)c1` [RIVASTIGMINE], for which the IC50 (in general, the concentration needed to halve the response being measured) turned out to be 1100 nM. This lies in the single-digit micromolar range.
